Test results from ChEMBL document CHEMBL1129692, “Affinity for dopamine D2, D3, and D4 receptors of 2-aminotetralins. Relevance of D2 agonist binding for determination of receptor subtype selectivity” (J Med Chem, 1996).

The chains behind the UniProt entries cited, without tags or fusion partners.
UniProt P35462, whole entry: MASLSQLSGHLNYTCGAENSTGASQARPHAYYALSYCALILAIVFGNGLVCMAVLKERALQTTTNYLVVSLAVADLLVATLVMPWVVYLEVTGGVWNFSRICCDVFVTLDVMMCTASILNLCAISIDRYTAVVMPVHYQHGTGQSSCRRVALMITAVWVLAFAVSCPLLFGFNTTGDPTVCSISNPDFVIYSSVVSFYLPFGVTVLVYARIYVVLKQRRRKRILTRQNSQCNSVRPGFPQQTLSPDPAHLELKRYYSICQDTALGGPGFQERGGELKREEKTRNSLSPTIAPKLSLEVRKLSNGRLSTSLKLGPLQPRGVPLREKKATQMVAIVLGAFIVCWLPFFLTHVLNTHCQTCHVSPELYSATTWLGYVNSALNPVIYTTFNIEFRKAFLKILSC
UniProt P14416, whole entry: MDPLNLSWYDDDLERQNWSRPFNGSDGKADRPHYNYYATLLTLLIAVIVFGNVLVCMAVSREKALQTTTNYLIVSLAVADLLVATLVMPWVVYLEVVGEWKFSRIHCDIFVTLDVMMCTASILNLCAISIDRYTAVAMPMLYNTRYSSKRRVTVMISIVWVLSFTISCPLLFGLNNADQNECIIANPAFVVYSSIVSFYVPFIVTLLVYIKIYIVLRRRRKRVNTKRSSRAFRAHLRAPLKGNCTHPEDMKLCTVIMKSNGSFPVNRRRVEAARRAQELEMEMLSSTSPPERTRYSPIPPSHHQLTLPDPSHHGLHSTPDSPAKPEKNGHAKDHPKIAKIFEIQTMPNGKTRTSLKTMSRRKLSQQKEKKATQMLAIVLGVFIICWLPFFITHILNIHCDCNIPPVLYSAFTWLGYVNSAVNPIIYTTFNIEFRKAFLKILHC

Experiments:
Assay in all cases: biochemical
D(3) dopamine receptor = D(3) dopamine receptor (Homo sapiens, UniProt P35462)
D(2) dopamine receptor [1] = molecular target: T1, D(2) dopamine receptor (Homo sapiens, UniProt P14416)
D(2) dopamine receptor [2] = molecular target: T1, D(2) dopamine receptor; remark: listed apart in the source

| Structure (SMILES) | Ki (D(3) dopamine receptor) | Ki (D(2) dopamine receptor [1]) | Ki (D(2) dopamine receptor [2]) |
| --- | --- | --- | --- |
| CCCN(CCC)[C@@H]1CCc2c(O)cccc2C1 | 76 nM | 90 nM |  |
| CCCNC1CCc2c(O)cccc2C1 (stereo not drawn) | 0.75 nM | 285 nM | 0.5 nM |
| CCCN(CCC)C1CCc2c(O)cccc2C1 (single isomer, unassigned) | 0.54 nM | 6 nM | 14 nM |
